# Measured affinities in a library of Ab-14 light chain variants

Binding partner: SARS-CoV-2 spike HR2 peptide, sequence PDVDLGDISGINAS.

Ab-14 is the parent antibody, in scFv form: VH, then the linker GGGGSGGGGSGGGGS, then VL. The heavy chain is unchanged in all variants.
VH: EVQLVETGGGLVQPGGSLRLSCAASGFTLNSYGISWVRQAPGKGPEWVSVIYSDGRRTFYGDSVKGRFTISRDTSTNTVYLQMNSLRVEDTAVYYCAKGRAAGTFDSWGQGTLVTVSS
VL: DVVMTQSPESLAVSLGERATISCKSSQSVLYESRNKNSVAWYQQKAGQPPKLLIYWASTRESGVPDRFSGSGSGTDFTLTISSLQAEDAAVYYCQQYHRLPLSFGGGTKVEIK

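These sequences belong to a second round, designed from the earlier measurements on random variants of the parent. Their group label is 14L_Ctrl (Ctrl: baseline library sampled from a position-specific scoring matrix, with some repeated check sequences). AlphaSeq pools MATa yeast showing the antibodies with MATalpha yeast showing the peptide. Binding brings cells together so that they mate, and sequencing counts the barcode pairs among the diploids. Scores were corrected for input abundance and mapped to Kd with protein pairs of known affinity run in the same pool. The assay was run in six technical replicates.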

The whole VL of each variant is written out. Numbers give log10(Kd / nM), so 0 is 1 nM and 3 is 1 µM. Smaller is tighter. The mean shown is taken over the replicates in which the pair was detected. "nd" marks a missing value. The strain was present, yet no cells mated with the target were sequenced in that replicate, which points to weak or no binding. Values of this round are not directly comparable with the first-round values of the same sequences.

| # | VL | replicates, log10 nM | mean log10 Kd (nM) | control signals |
|---|---|---|---|---|
| 1 | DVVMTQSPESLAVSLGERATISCKSMQSVLYESRNKNSVAWYQQKAGQPPKLLIYWASTREVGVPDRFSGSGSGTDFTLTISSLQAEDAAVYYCQQYHRLPLDFGGGTKVEIK | nd / nd / nd / nd / 2.78 / 2.79 | 2.78 | 0/18 |
| 2 | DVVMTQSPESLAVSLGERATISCKSSQSVAYMSRNKNNVAWYQQKAGQPPKLLIYDASIRESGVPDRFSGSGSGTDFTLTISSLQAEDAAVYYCQQYERLPLSFGGGTKVEIK | -0.39 / -0.12 / -0.29 / -0.38 / -0.19 / -0.39 | -0.29 | 0/18 |
| 3 | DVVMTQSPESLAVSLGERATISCKSDQSVLYESRNKNSVAWYQQKAGQPPKLLIYWASTRESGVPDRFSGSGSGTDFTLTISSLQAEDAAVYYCQQYLRLPLSFGGGTKVEIK | nd / nd / 2.00 / nd / 2.14 / nd | 2.07 | 0/18 |
| 4 | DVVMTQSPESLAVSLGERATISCKSSQSVPNESRNKNSVAWYQQKAGQPPKLLIYWASTRESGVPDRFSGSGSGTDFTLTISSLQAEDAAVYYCQQYHRLPLSFGGGTKVEIK | nd / nd / 1.08 / 1.46 / 1.90 / 2.37 | 1.70 | 0/18 |
| 5 | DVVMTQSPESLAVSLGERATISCKSSQSVLYESRNKNSVAWYQQKAGQPPKLLIYYASTRASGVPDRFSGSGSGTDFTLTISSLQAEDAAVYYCQQYHRLPLSFGGGTKVEIK | 1.97 / 1.75 / 1.54 / 1.37 / 1.40 / 2.36 | 1.73 | 2/18 (1.75) |
| 6 | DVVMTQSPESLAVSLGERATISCYSSQSVLMESRNKNSVAWYQQKAGQPPKLLIYGASTREWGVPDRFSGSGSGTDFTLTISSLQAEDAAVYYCQQYHRLPLSFGGGTKVEIK | 0.96 / 0.78 / 0.73 / 1.63 / 0.82 / 1.17 | 1.02 | 0/18 |
| 7 | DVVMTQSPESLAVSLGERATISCKSSQSVLKESRNKNSVAWYQQKAGQPPKLLIYWASTRESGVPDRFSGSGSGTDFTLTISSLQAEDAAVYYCQQQHRLPLSFGGGTKVEIK | nd / nd / nd / nd / nd / nd | nd | 0/18 |
| 8 | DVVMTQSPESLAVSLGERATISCKSSQSVLNNSDNKNSVAWYQQKAGQPPKLLIYWASTRESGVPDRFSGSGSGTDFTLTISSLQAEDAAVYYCQQYHRLPLSFGGGTKVEIK | nd / 2.01 / 2.32 / nd / nd / 2.16 | 2.16 | 0/18 |
| 9 | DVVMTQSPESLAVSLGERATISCKSSQSGLYESENKNSVAWYQQKAGQPPKLLIYEASTRESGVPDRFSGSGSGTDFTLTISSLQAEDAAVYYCQQYHRLPLSFGGGTKVEIK | nd / nd / nd / nd / nd / nd | nd | 0/18 |
| 10 | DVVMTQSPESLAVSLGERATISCKMSQSVWYESRNKNSVAWYQQKAGQPPKLLIYWASTRESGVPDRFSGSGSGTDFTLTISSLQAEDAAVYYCQQYHRLPLSFGGGTKVEIK | nd / nd / nd / 1.05 / nd / nd | 1.05 | 0/18 |
| 11 | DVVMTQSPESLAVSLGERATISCKSSQTVLYESRNKNSVAWYQQKAGQPPKLLIYSASTRESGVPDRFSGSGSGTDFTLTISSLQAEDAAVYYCQQYHRLPLEFGGGTKVEIK | 0.58 / 0.24 / 0.54 / 2.34 / nd / 0.56 | 0.85 | 0/18 |
| 12 | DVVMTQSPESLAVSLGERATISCKSSQSVLYESRNKNSVAWYQQKAGQPPKLLIYAASTRESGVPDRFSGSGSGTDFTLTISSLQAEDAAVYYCQQYHDLPLSFGGGTKVEIK | 1.43 / 1.50 / 1.97 / 1.63 / nd / 2.63 | 1.83 | 0/18 |
| 13 | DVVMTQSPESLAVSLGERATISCKSSQSVLYESRNKNMVAWYQQKAGQPPKLLIYWASTRMSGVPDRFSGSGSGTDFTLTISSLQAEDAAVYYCQQYHRLPLSFGGGTKVEIK | nd / nd / nd / nd / nd / nd | nd | 0/18 |
| 14 | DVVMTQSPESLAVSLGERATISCKSSQSCLYMSRNTNSVAWYQQKAGQPPKLLIYWASTRSSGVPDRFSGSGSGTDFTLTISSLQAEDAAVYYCQQYHRLPLSFGGGTKVEIK | nd / 2.63 / 3.23 / 1.79 / 2.62 / 1.96 | 2.45 | 0/18 |
| 15 | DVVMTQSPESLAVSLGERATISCKSSQSVLYFSRNKNSVAWYQQKAGQPPKLLIYHASTREYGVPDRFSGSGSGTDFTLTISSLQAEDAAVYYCQQYHRLPLSFGGGTKVEIK | nd / nd / nd / nd / nd / nd | nd | 0/18 |
| 16 | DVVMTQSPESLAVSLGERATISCKSSQSLLYTSRNKNSVAWYQQKAGQPPKLLIYGASTRESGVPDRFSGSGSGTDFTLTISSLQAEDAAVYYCQQYHRLPLSFGGGTKVEIK | 0.71 / 1.19 / 0.87 / 1.71 / 2.22 / 2.09 | 1.46 | 0/18 |
| 17 | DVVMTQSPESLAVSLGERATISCKSSQSVLYEHRNKNSVAWYQQKAGQPPKLLIYDVSTRESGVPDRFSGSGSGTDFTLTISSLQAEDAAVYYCQQYHRLPLSFGGGTKVEIK | 0.82 / 0.70 / 0.49 / 0.17 / 0.59 / 1.07 | 0.64 | 1/18 (3.30) |
| 18 | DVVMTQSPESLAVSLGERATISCLSSQSVQYDSRNKNSVAWYQQKAGQPPKLLIYAASTRESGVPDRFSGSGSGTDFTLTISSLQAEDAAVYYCQQYGRLPLSFGGGTKVEIK | 0.74 / 0.97 / 0.74 / 0.66 / 0.96 / 0.90 | 0.83 | 0/18 |
| 19 | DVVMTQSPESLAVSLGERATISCKSSQSELYESRNKNSVAWYQQKAGQPPKLLIYWASTRESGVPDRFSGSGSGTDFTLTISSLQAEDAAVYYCQQYHGLPLSFGGGTKVEIK | 3.98 / nd / nd / nd / 2.81 / 1.30 | 2.70 | 0/18 |
| 20 | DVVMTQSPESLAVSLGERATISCKSSQSVLYESRNKNHVAWYQQKAGQPPKLLIYHASTRESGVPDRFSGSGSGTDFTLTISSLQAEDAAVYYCQQYHRLRLSFGGGTKVEIK | 1.80 / 1.71 / 2.34 / nd / 1.26 / 0.83 | 1.59 | 0/18 |

Background: pairings of all light chain designs with three empty control strains gave a value in 4% of cases (median 2.64, 5th percentile 1.59). Values in that range, when seen in few replicates, are hard to tell from nonspecific mating. Also given: how often the same scFv was detected with the empty control strains, with their mean in brackets. The parent sequence was in this pool as ten entries: three were never detected, three once, and four in most replicates, with averages from 0.34 to 2.37. The authors' rule: three or more of the six replicates give a measured affinity, fewer mean a poor binder.

Values reported by Li et al. 2023, doi:10.1038/s41467-023-39022-2 (FLAb copy).